Experimental data: patent US9796676B2, “Honeybee repellents and uses thereof” (Inscent, Inc., priority 2013, dated 2017)

Tested on: Apis mellifera Carniolan foraging worker honeybees
Experiment: Proboscis extension response (PER) assay with bees conditioned to 2-heptanone
Format: in vivo
Settings: 0.5% compound in Triton X-100/water on filter paper, 4 s exposure; only bees giving PER with 2-heptanone and not with water or 15% Triton X-100 controls counted
Experimental: To determine whether a living honeybee can recognize a candidate compound, these compounds were tested using a proboscis extension response (PER) assay using classical conditioning approaches. Proboscis extension response conditioning is a case of appetitive learning, in which bees learn to associate odor stimuli with sucrose reward in the laboratory. In this case, bees were conditioned to produce a PER to 2-heptanone as the conditioned stimulus and a sugar reward as the unconditioned stimulus. These trained bees were then exposed to an odor pulse of a candidate compound to test whether a candidate compound would also produce a PER. If the candidate compound “mimics” 2-heptanone then the honeybee will extend its proboscis.
For conditioning procedures, Apis mellifera Carniolan foraging worker honeybees were obtained from a local apiary (typically 60 bees per shipment). […]
To train a honeybee to respond to a conditioned and unconditioned stimuli, bees were placed, without anesthesia, in individual 1.5 mL micro-centrifuge holding tubes and held overnight without access to food or water. […] Positive and negative responses were recorded. A positive PER was scored when a bee extended its proboscis before the sucrose appeared. […]

Structure (SMILES) | 2-heptanone positive bees testing positive to compound [%]
O=C(CCN1C(=O)c2ccccc2C1=O)N1CCN(C2c3ccccc3-c3ccccc32)CC1 [compound 100] | 10.4
O=C(CCN1C(=O)c2ccccc2C1=O)N1CCN(C2c3ccccc3-c3ccccc32)CC1 [compound 102] | 10.5
